The entries are a selection whose mix differs from that of the whole data set. Results filed as inconclusive are left out. Some structures show a salt or complex split into parts, the way the source records it. Calls of active or inactive are those of the source. Calls come from the whole dose curve; as a rule, active = well fitted activation curve with a large enough effect; inconclusive = small, poorly fitted or top-dose-only effect; inactive = no such curve, though single readings can be large or run the other way.

This assay in a line: qHTS Assay for Rab9 Promoter Activators. Note: % of control where 0% means no effect; nearly all actives have a fitted effect of over 60% in size. The following applies: Huh7 Rab9 promoter-luciferase reporter, luminescence, 24 h; at 9.22 µM (top of the series) unless noted. A general note: qHTS replaces the single test concentration by a dilution series.
For `CCCOc1ccc(C(=O)NCC2(N(C)C)CCCCC2)cc1`, the activation, negative = inhibition is inactive: -0.0534%.

`CC(C)(C)OC(=O)N1CCC(Nc2ccccc2)CC1`: the activation, negative = inhibition was inactive: -0.578%.

For `O=C(O)C1(Nc2ccccc2)CCN(Cc2ccccc2)CC1`, the activation, negative = inhibition was inactive: -1.59%.

Take `CCOc1ncccc1C(=O)NCC1(N2CCOCC2)CCCCC1`: the activation, negative = inhibition was inactive: 0.378%.

For `CN1CCC(Nc2ccc(F)c(Cl)c2)CC1`, the activation, negative = inhibition is inactive: 3.1%.

On to `CCCOc1ccc(C)cc1CN(CCCl)CCCl`, for which the activation, negative = inhibition was inactive: -2.83%.

With `CN1CCC(Nc2ccc(Cl)cc2)CC1`, the activation, negative = inhibition was inactive: 2.69%.

For `CCC(CO)(C(=O)OC1CN2CCC1CC2)c1ccccc1` (stereo not given), the activation, negative = inhibition is inactive: -4.11%.

On to `COc1cc(OC)cc(C(=O)NCC2(N3CCOCC3)CCCCC2)c1`, for which the activation, negative = inhibition was inactive: 22.9%.

Take `COc1cccc(C(=O)N(c2cc(C)cc(C)c2)C2CCN(C(=O)OC(C)(C)C)CC2)c1`: the activation, negative = inhibition was inactive: -5.25% [at 1.84 µM].

For the molecule `Cc1ccc(C(=O)NCC2(N3CCCCC3)CCCCC2)o1`, the activation, negative = inhibition was inactive: -2.38%.

Take `Fc1ccccc1NC1CCN(Cc2ccccc2)CC1`: the activation, negative = inhibition is inactive: 5.69%.

With `COc1cc(OC)cc(C(=O)NCC2(N3CCCCC3)CCCCC2)c1`, the activation, negative = inhibition was inactive: -6.28%.

In the case of `O=C(NCC1(N2CCCCC2)CCCCC1)c1ccco1`, the activation, negative = inhibition was inactive: -1.33%.

For `CN(C)c1ccc(C(=O)NCC2(N3CCCCC3)CCCCC2)cc1`, the activation, negative = inhibition is inactive: -6%.

For the molecule `CCN1CCC(Nc2cccc(F)c2)CC1`, the activation, negative = inhibition was inactive: -8.3%.

For `CCOC(=O)C(CC)C1=NC(C)(C)Cc2ccccc21.O=[N+]([O-])c1cc([N+](=O)[O-])c(O)c([N+](=O)[O-])c1` (stereo not given), the activation, negative = inhibition was inactive: -9.68%.

For `CC(C)(C)OC(=O)N1CCC(N(C(=O)c2ccccc2)c2ccc(Cl)cc2)CC1`, the activation, negative = inhibition was inactive: -1.87%.

`N#Cc1ccc(C(=O)NCC2(N3CCCCC3)CCCCC2)cc1`: the activation, negative = inhibition was inactive: -1.85%.

As for `c1ccc(CN2CCC(Nc3ccccc3)CC2)cc1`, the activation, negative = inhibition was inactive: 4.66%.

On to `CCCN1CCC(Nc2cc(OC)cc(OC)c2)CC1`, for which the activation, negative = inhibition is inactive: 1.57%.

As for `CN(C)C1(CNC(=O)c2cccc(C#N)c2)CCCCC1`, the activation, negative = inhibition is inactive: -4.22%.

With `COc1ccc(C(=O)NCC2(N3CCOCC3)CCCCC2)cc1OC`, the activation, negative = inhibition was inactive: -19.3%.

Consider `O=C(NCC1(N2CCOCC2)CCCCC1)c1cc(Br)ccc1Cl`, for which the activation, negative = inhibition is inactive: -2.61%.

Consider `O=C(OC1CN2CCC1CC2)C1c2ccccc2C=Cc2ccccc21` (stereo not given), for which the activation, negative = inhibition was inactive: 2.48%.

In the case of `CCc1cc(C(=O)NCC2(N3CCCCC3)CCCCC2)sc1C`, the activation, negative = inhibition is inactive: -5.85%.

Turning to `O=C(O)c1cccc(Nc2c([N+](=O)[O-])cc([N+](=O)[O-])cc2[N+](=O)[O-])c1`, the activation, negative = inhibition is inactive: 0.0243%.

As to `N/C(=N\O)c1c(N)no[n+]1[O-]`, the activation, negative = inhibition was inactive: -3.82%.

`CCOC(=O)N1CCC(Nc2ccc(C)cc2)CC1`: the activation, negative = inhibition is inactive: -1.82%.

As to `COc1cc(OC)c(C(=O)NCC2(N(C)C)CCCCC2)cc1OC`, the activation, negative = inhibition is inactive: 4.36%.

As for `COc1ccc(CN(CCCl)CCCl)cc1Cl`, the activation, negative = inhibition is inactive: -1.68%.

Take `O=[N+]([O-])c1cc([N+](=O)[O-])c(OC2CCCCC2O)c([N+](=O)[O-])c1` (stereo not given): the activation, negative = inhibition was inactive: 10.2%.

As to `CN(C)c1cccc(C(=O)NCC2(N3CCCCC3)CCCCC2)c1`, the activation, negative = inhibition is inactive: -9.53%.

Turning to `CCCOc1ccc(C(=O)NCC2(N(C)C)CCCCC2)cc1OC`, the activation, negative = inhibition was inactive: -4.97%.

As for `O=C(NCC1(N2CCCCC2)CCCCC1)c1cncc(Br)c1`, the activation, negative = inhibition was inactive: -5.11%.

For `COc1ccc2c(c1O)-c1c(O)c(OC)cc3c1[C@H](C2)[N+](C)(C)CC3.O=[N+]([O-])c1cc([N+](=O)[O-])c([O-])c([N+](=O)[O-])c1[O-]`, the activation, negative = inhibition was inactive: -3.21%.

Regarding `O=C(OC1CN2CCC1CC2)c1ccc([N+](=O)[O-])cc1` (stereo not given), the activation, negative = inhibition is inactive: 1.56%.

As to `CSc1ccc(C(=O)NCC2(N3CCOCC3)CCCCC2)cc1`, the activation, negative = inhibition was inactive: -1.79%.

With `CCN1CCC(Nc2ccc(Cl)cc2)CC1`, the activation, negative = inhibition was inactive: 2.72%.

Take `N#CC1(Nc2ccccc2)CCN(CCc2ccccc2)CC1`: the activation, negative = inhibition is inactive: 3.53%.

For the molecule `O=C(NCC1(N2CCCCC2)CCCCC1)c1ccc(OC(F)F)cc1`, the activation, negative = inhibition was inactive: -12.2%.

For the molecule `CN1CCN(CCOC(=O)C(O)(c2ccccc2)c2ccccc2)CC1`, the activation, negative = inhibition was inactive: -0.818%.

For `COc1ccc(NC2CCN(C(=O)OC(C)(C)C)CC2)cc1`, the activation, negative = inhibition was inactive: 4.34%.

On to `CC(C)c1ccc(C(=O)NCC2(N3CCOCC3)CCCCC2)cc1`, for which the activation, negative = inhibition was inactive: -5.75%.

Turning to `COc1cc(C(=O)NCC2(N3CCCCC3)CCCCC2)ccc1OC(F)F`, the activation, negative = inhibition is inactive: -9.92%.

Turning to `O=C(NCC1(N2CCOCC2)CCCCC1)c1cc(=O)[nH]c2ccccc12`, the activation, negative = inhibition was inactive: -2.29%.

In the case of `O=C(NCC1(N2CCCCC2)CCCCC1)c1cccc(C(F)(F)F)c1`, the activation, negative = inhibition was inactive: -5.52%.

For `O=[N+]([O-])c1cc([N+](=O)[O-])c(NCC2CCS(=O)(=O)C2)c([N+](=O)[O-])c1` (stereo not given), the activation, negative = inhibition was inactive: 10%.

Consider `O=C(NCC1(N2CCCCC2)CCCCC1)c1ccc(F)cc1`, for which the activation, negative = inhibition was inactive: -4.55%.

As for `CCCCOc1ccc(C(=O)NCC2(N3CCOCC3)CCCCC2)cc1`, the activation, negative = inhibition is inactive: -7.41%.

Regarding `COc1ccc(NC2CCN(CCc3ccccc3)CC2)c(OC)c1`, the activation, negative = inhibition is inactive: -3.39%.

As to `CCOC(=O)N1CCC(Nc2ccc(F)cc2)CC1`, the activation, negative = inhibition is inactive: 4.04%.

For the molecule `CCOc1ccc(C)cc1CN(CCCl)CCCl`, the activation, negative = inhibition was inactive: -4.09%.

With `COc1cc(C(=O)NCC2(N(C)C)CCCCC2)ccc1OC(F)F`, the activation, negative = inhibition is inactive: -5.82%.

On to `CCOC(=O)N1CCC(Nc2cccc(C)c2)CC1`, for which the activation, negative = inhibition was inactive: 0.401%.

Consider `Cc1ccc(OCC(C)C)c(CN(CCCl)CCCl)c1`, for which the activation, negative = inhibition was inactive: -2.98%.

Take `CSc1ccccc1C(=O)NCC1(N2CCCCC2)CCCCC1`: the activation, negative = inhibition was inactive: -0.0228%.

Take `O=C(NCC1(N2CCCCC2)CCCCC1)c1ccc(=O)[nH]c1`: the activation, negative = inhibition is inactive: -3.36%.

For the molecule `O=C(NCC1(N2CCCCC2)CCCCC1)c1cccs1`, the activation, negative = inhibition is inactive: 0.144%.

With `COc1ccc(C(=O)NCC2(N3CCCCC3)CCCCC2)cc1`, the activation, negative = inhibition was inactive: -11.4%.

As to `COc1ccc(C(=O)NCC2(N3CCCCC3)CCCCC2)c(OC)c1OC`, the activation, negative = inhibition was inactive: -3.05%.

For `CC(C)(C)OC(=O)N1CCC(N(C(=O)c2ccccc2)c2ccc(F)cc2)CC1`, the activation, negative = inhibition was inactive: -1.65% [at 1.84 µM].

For `CCOC(=O)N1CCC(Nc2ccc(OC)cc2)CC1`, the activation, negative = inhibition was inactive: 1.68%.

`O=C(OC1CN2CCC1CC2)C1c2ccccc2Oc2ccccc21` (stereo not given): the activation, negative = inhibition was inactive: -2.33%.

`O=C(NCC1(N2CCCCC2)CCCCC1)c1ccc(Cl)s1`: the activation, negative = inhibition was inactive: -8.44%.

For the molecule `N#CC1(Nc2ccccc2)CCN(Cc2ccccc2)CC1`, the activation, negative = inhibition was inactive: -1.83%.

Take `COc1ccc(Cl)cc1C(=O)NCC1(N2CCOCC2)CCCCC1`: the activation, negative = inhibition was inactive: 0.792%.

For the molecule `O=C(NCC1(N2CCOCC2)CCCCC1)c1cc2ccccc2o1`, the activation, negative = inhibition was inactive: -1.25%.

`O=C(NCC1(N2CCCCC2)CCCCC1)c1ccc(Cl)nc1`: the activation, negative = inhibition was inactive: -13.7%.

In the case of `Cc1cc(C)cc(N(C(=O)c2ccccc2)C2CCN(C(=O)OC(C)(C)C)CC2)c1`, the activation, negative = inhibition is inactive: -0.337%.

Values taken from PubChem BioAssay AID485297 (National Center for Advancing Translational Sciences (NCATS), 2010).
